Results: patent US20190343860A1 (Saint Louis University, priority 2016, published 2019)

Amino acid sequences for entries named in this document (tags omitted).
UniProt Q60613, whole entry: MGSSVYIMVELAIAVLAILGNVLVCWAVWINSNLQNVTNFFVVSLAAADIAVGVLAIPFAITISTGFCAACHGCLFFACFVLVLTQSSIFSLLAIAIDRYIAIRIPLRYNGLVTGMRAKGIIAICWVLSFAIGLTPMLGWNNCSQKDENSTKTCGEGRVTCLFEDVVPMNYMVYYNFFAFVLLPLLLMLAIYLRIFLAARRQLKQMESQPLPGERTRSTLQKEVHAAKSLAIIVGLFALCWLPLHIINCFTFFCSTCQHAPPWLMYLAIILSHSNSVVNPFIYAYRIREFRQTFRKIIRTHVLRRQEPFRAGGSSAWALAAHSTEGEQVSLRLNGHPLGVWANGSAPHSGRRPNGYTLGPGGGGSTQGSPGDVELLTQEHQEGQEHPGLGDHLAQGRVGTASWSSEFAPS

Key:
hA2AAR = hA2AAR (Homo sapiens, UniProt P29274); experiment: Radioligand binding, membranes of HEK293 cells stably expressing hA2AAR; details: species h; inhibition of binding at 10 μM
mA2AAR = mA2AAR (Mus musculus, UniProt Q60613); experiment: Radioligand binding, membranes of HEK293 cells stably expressing mA2AAR; details: species m; inhibition of binding at 10 μM

% inhibition A2A (hA2AAR): (1% ± 1%)
% inhibition A2A (mA2AAR): (0%)
Compound: CNC(=O)[C@@]12C[C@@H]1[C@@H](n1cnc3c(NCCc4ccc(S(=O)(=O)O)cc4)nc(C#Cc4ccccc4)nc31)[C@H](O)[C@@H]2O
